Assay results from ChEMBL document CHEMBL1135805, “C-7 analogues of progesterone as potent inhibitors of the P-glycoprotein efflux pump” (J Med Chem, 2002).

Chains of the proteins cited; added tags and fusions are not shown.
UniProt P08183, whole entry: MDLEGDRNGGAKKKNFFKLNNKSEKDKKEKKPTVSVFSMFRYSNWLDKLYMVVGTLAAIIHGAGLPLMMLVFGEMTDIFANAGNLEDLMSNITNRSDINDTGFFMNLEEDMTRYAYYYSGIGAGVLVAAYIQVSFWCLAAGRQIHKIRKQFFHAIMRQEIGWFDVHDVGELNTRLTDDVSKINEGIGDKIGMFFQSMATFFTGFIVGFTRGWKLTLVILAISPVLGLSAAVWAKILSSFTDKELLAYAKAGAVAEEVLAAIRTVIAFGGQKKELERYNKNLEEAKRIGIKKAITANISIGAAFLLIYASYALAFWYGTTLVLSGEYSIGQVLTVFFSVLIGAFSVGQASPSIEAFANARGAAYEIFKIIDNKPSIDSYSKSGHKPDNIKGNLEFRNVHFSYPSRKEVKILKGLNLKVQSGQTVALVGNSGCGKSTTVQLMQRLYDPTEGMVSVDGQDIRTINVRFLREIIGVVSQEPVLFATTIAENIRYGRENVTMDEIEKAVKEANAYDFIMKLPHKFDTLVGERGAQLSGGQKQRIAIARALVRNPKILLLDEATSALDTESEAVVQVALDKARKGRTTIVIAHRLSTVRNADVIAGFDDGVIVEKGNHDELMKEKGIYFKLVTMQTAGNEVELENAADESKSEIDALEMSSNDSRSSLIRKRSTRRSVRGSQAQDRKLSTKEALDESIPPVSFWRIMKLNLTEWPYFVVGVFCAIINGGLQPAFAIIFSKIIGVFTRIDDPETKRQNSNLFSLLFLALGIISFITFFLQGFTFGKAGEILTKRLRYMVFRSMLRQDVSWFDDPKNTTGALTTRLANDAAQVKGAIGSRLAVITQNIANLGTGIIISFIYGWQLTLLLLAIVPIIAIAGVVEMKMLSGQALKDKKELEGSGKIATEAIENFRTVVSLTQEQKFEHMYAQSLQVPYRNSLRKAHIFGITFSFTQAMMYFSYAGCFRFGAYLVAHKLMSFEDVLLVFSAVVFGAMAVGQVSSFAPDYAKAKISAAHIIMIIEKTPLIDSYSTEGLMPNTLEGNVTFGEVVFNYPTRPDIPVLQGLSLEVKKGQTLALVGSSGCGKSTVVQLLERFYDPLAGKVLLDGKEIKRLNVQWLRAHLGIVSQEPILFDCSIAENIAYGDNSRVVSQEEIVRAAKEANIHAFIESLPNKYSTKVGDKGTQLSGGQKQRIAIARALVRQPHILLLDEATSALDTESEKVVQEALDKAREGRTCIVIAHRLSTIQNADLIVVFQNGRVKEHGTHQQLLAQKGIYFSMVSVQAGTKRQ

What was measured:
Breast cancer cell line = assay: Concentration that reduces difference in reversal of [3H]VBL accumulation between MDA-435/LCC6 and MDA-435/LCC6-MDRI cells by 50%; assay type: functional, cell-based; conditions: Homo sapiens
[1] = target: ATP-dependent translocase ABCB1 (Homo sapiens, UniProt P08183); assay: TP_TRANSPORTER: reversal of Vinblastine accumulation (Vinblastine: 0.005 uM) in MDA435/LCC6 MDR1 cells; assay type: functional, cell-based, MDA-MB-435/LCC6 MDR1

Row | EC50 (Breast cancer cell line) | Structure (SMILES) | EC50 [1]
1 | 0.6 µM | C/C=C/C[C@@H](C)[C@@H](O)[C@H]1C(=O)N[C@@H](CC)C(=O)N(C)CC(=O)N(C)[C@@H](CC(C)C)C(=O)N[C@@H](C(C)C)C(=O)N(C)[C@@H](CC(C)C)C(=O)N[C@@H](C)C(=O)N[C@H](C)C(=O)N(C)[C@@H](CC(C)C)C(=O)N(C)[C@@H](CC(C)C)C(=O)N(C)[C@@H](C(C)C)C(=O)N1C [CYCLOSPORINE] | –
2 | – | CC(=O)[C@H]1CC[C@H]2[C@@H]3CCC4=CC(=O)CC[C@]4(C)[C@H]3CC[C@]12C [PROGESTERONE] | 21.2 µM
